Measured values: article PMC2916045 (2010)

Molecular target: T1, HDAC6 (Homo sapiens, UniProt Q9UBN7)
T1 sequence (Q9UBN7 1-1215): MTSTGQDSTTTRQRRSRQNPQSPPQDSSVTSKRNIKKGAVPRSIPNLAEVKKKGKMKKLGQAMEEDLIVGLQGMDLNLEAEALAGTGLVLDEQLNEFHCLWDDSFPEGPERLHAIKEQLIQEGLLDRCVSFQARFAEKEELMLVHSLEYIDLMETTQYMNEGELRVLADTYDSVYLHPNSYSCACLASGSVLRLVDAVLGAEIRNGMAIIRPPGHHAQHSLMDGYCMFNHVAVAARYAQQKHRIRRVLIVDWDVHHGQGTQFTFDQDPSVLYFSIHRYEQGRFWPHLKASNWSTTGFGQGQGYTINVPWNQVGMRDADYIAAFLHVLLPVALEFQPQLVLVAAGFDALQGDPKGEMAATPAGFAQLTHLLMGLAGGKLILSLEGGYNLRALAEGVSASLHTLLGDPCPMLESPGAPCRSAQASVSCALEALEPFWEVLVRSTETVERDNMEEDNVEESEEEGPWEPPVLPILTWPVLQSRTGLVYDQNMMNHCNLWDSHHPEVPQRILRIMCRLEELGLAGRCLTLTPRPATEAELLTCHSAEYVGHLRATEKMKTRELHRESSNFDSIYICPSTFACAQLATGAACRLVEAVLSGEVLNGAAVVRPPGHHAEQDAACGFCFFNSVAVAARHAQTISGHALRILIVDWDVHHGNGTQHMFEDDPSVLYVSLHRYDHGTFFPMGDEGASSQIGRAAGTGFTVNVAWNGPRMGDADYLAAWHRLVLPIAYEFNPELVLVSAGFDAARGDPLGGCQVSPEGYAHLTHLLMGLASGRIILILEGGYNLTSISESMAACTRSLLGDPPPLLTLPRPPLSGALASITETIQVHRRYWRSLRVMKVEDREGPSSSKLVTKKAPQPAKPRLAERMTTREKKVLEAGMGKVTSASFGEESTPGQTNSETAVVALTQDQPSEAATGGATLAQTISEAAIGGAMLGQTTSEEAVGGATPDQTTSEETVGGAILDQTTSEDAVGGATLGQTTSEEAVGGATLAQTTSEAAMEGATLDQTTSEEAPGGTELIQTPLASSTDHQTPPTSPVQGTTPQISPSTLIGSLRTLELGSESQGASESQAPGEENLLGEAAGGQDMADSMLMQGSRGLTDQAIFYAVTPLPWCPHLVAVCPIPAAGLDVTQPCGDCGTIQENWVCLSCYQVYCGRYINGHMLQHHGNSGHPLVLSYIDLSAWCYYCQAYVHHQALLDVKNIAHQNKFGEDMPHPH
Test: HDAC6 enzyme inhibition, purified human HDAC protein
Assay type: biochemical
Settings: read-out: HDAC6 IC50 (µM) ± SD; 10-dose, 3-fold serial dilution from 30 µM, duplicate; mean of two experiments (TSA: 9)

IC50: 0.0024 ± 0.0021 µM
Substance: ISOX
